# According to patent publication US20090131370A1, “Novel Nucleoside Derivatives” (METABASIS THERAPEUTICS , INC., priority 2004, published 2009):
# System: HCV
# Test: Antiviral activity in HCV-infected human liver slice assay
# Type: cell-based, hepatitis C virus
# Details: HCV RNA in culture media
# Description: The effect of various compounds on HCV replication in human liver tissue was evaluated as described below.
# Liver from a brain-dead HCV antibody-positive human patient was perfused with ice-cold Viaspan (Dupont Pharmaceutical) preservation solution and received on ice in Viaspan.
# Precision-cut liver slices of ˜200-250 μm thickness and […] diameter were prepared and cultured in Waymouth's cell culture medium (Gibco, Inc.) that was supplemented with 10% fetal bovine serum and 10 mL/L Fungi-Bact at 37° C., and gassed with carbogen (95% O2, 5% CO2) at 0.75 liters/min. Tissue slices were maintained in culture for 72 h. Cell culture medium containing test compound in solution was changed on a daily basis.
# At appropriate times of liver slice incubation, liver slices and medium were collected for analysis of HCV RNA (tissue and medium) and nucleotide levels (NTP). All collected media and tissue slices were maintained in liquid N2 until analysis.
# Medium and tissue samples were analyzed for HCV RNA levels according to published procedures (Bonacini et. al., 1999) which utilize an automated, multicycle, polymerase chain reaction (PCR)-based technique. This assay has a lower limit of detection for HCV RNA of 100 viral copies/ml. Frozen liver slices were disrupted by using a combination of ultrasound probe sonication, Branson Sonifier 450 (Branson Ultrasonics, Danbury, Conn.) and homogenization using a Dounce conical pestle in 200 μls of 10% (v/v) perchloric acid (PCA). After a 5 min centrifugation at 2,500×g, the supernatants were neutralized using 3 M KOH/3 M KHCO3 and mixed thoroughly. The neutralized samples were centrifuged at 2,500 g for 5 min and NTP levels were determined by ion exchange phase HPLC (Hewlett Packard 1050) using a Whatman Partisil 5 SAX (5 μm, 4.6×250 mm) column. Samples (50 μL) were injected onto the column in 70% 10 mM ammonium phosphate buffer and 30% 1 M ammonium phosphate buffer, both at pH 3.5 and containing 6% ethanol. Nucleoside triphosphates were eluted from the column using a linear gradient to 80% 1 M ammonium phosphate pH 3.5/6% ethanol buffer, at a flow rate of 1.25 mL/min and detected by UV absorbance (254 nm).
smiles,measurement,setting,value
C[C@@]12OC(=O)O[C@@H]1[C@@H](COP1(=O)OCC[C@@H](c3ccncc3)O1)O[C@H]2n1cnc2c(N)ncnc21 (stereo partly shown) [Compound 30.1],% decrease in viral RNA relative to untreated liver slices,0.25 μM,0%
same,% decrease in viral RNA relative to untreated liver slices,2.5 μM,0%
same,% decrease in viral RNA relative to untreated liver slices,25 μM,94%
same,% decrease in viral RNA relative to untreated liver slices,100 μM,96%
